The source of these data is PMC8431798.

In the test the target is fluorescently labeled rabbit skeletal actin (rabbit) (UniProt P68135). The test can be described thus: MST; fluorescently labeled rabbit skeletal actin at constant concentration, troponin complex titrated in 16 capillaries; Monolith NT.115; fit to the Kd model; n = 4-7.
Take “human cardiac troponin complex with cTnC-G34S (cTn-G34S) (from UniProt P63316 1-161; P19429 1-210; P45379 1-298)”: the Kd worked out at 1930 nM.

Take “human cardiac troponin complex with cTnI-D127Y (cTn-D127Y) (from UniProt P63316 1-161; P19429 1-210; P45379 1-298)”: the dissociation constant Kd was found to be 2200 nM.

For the substance “human cardiac wild type troponin complex (cTn-WT) (from UniProt P63316 1-161; P19429 1-210; P45379 1-298)”, the Kd came out at 2010 nM.

As a reminder, the Kd is the equilibrium constant for the complex coming apart. Read a high Kd as a looser complex.
